IC50 data for one compound are collected here from ChEMBL document CHEMBL1142718, “Novel indolylindazolylmaleimides as inhibitors of protein kinase C-beta: synthesis, biological activity, and cardiovascular safety” (J Med Chem, 2005).

Sequences of proteins named here, by UniProt entry; tags and fusion partners are left off. Residues count along the entry.
UniProt P15208, 28-748 limits assumed: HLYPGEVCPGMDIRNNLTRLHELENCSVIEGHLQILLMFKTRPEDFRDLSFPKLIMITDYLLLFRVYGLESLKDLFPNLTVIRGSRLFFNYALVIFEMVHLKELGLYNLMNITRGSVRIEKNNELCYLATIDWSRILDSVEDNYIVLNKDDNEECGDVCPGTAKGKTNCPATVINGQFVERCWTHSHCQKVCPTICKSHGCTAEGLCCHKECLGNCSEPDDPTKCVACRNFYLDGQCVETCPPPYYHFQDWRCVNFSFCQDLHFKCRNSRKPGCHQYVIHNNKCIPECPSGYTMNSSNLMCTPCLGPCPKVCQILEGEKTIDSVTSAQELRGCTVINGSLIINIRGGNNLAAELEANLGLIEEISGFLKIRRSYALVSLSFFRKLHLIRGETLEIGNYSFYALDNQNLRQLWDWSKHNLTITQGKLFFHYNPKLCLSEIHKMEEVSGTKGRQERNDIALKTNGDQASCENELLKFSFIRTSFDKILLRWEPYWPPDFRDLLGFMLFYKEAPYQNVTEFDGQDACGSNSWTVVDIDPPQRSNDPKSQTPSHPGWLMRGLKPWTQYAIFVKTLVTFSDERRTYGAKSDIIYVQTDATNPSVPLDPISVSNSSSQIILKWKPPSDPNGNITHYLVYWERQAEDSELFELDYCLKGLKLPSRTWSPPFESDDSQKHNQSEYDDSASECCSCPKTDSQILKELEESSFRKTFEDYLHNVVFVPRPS
UniProt P15208, 753-1372 limits assumed: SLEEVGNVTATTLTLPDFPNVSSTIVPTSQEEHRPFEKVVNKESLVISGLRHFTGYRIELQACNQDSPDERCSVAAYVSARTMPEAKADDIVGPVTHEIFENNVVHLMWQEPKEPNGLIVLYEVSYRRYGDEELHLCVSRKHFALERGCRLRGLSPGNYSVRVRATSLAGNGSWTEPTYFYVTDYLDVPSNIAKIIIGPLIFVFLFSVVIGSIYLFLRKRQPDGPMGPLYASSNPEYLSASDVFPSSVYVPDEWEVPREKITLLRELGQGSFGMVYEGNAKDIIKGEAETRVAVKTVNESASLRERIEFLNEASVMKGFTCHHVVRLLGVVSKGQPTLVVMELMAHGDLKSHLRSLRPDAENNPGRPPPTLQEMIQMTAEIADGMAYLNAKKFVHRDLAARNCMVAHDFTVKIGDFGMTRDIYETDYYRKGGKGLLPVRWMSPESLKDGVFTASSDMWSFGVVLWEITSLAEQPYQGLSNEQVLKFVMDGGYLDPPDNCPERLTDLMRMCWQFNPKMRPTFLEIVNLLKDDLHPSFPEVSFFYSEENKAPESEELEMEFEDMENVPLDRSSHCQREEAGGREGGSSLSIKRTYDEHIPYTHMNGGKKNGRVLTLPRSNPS

For this experiment, the target named is Insulin receptor (Mus musculus, UniProt P15208). Kind of experiment: Inhibition of Insulin receptor kinase in P19 cells. Format: cell-based.

Regarding `CN[C@@H]1C[C@H]2O[C@@](C)([C@@H]1OC)n1c3ccccc3c3c4c(c5c6ccccc6n2c5c31)C(=O)NC4` [STAUROSPORINE], inhibition was half-maximal at 200 nM (IC50).

Usually IC50 stands for the concentration needed to halve the response being measured. A lower IC50 goes with greater potency in that assay.
